In ChEMBL document CHEMBL6120968, “Discovery of Thiadiazoleamide Derivatives as Potent, Selective, and Orally Available Antagonists Disrupting Androgen Receptor Homodimer” (J Med Chem, 2024) one finds Activity data, which are given here for one molecule.

Sequences of proteins named here, by UniProt entry; tags and fusion partners are left off. A change or cut given only in a name is not applied to a line headed by its entry.
UniProt P10275: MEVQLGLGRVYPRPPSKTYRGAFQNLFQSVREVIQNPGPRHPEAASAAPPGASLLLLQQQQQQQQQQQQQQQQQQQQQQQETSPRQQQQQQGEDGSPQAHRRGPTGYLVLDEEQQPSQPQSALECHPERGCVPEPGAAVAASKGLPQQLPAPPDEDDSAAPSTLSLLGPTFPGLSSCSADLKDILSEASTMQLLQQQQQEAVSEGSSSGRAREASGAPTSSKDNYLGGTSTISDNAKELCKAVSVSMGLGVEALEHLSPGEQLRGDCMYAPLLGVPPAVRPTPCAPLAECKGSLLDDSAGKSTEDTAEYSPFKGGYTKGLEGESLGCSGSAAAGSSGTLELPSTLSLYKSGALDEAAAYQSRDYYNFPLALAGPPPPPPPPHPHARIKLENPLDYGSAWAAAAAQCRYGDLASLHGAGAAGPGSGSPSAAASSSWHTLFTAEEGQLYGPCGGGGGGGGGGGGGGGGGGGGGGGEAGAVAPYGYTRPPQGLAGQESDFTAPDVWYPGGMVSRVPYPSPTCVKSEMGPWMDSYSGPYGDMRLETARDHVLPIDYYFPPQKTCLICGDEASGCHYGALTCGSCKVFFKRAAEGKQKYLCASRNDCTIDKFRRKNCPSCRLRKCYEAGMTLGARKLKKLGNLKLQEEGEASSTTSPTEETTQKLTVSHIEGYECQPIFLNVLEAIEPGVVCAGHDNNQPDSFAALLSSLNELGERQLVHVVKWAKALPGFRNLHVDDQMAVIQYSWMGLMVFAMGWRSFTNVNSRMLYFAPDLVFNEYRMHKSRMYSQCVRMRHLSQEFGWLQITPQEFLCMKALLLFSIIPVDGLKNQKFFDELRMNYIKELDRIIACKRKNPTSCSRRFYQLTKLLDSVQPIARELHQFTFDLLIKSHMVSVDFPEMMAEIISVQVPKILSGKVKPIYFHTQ

The target in experiment [1] is T1, Androgen receptor (Homo sapiens, UniProt P10275). Briefly: Antagonist activity at DHT-induced Androgen receptor in human LNCaP cells assessed as inhibition of receptor dimerization at 10 uM incubated for 4 hrs by NanoBiT analysis. The class given is cell-based. Particulars: filed as antagonist.
Experiment [2] concerns the target T1, Androgen receptor. Briefly: Antagonist activity at DHT-induced Androgen receptor in human LNCaP cells assessed as inhibition of receptor dimerization incubated for 4 hrs by NanoBiT analysis. The class given is cell-based. The following applies: filed as antagonist, dose 4.0 µM.

The source made the active and inactive calls. The calls are words filed in the database; no cut-off is given here.

For the molecule `Cc1oc(-c2cccc(C(F)(F)F)c2)cc1C(=O)Nc1nc(CN2CCOCC2)ns1`, the result in experiment [1] was Active. Moreover, the Activity result in experiment [2] is “Dose-dependent-effect”.
